Data taken from patent US20230219965A1 (KSQ Therapeutics, Inc., priority 2020, published 2023).

Sequences of proteins named here, by UniProt entry; tags and fusion partners are left off.
UniProt O94782, whole entry: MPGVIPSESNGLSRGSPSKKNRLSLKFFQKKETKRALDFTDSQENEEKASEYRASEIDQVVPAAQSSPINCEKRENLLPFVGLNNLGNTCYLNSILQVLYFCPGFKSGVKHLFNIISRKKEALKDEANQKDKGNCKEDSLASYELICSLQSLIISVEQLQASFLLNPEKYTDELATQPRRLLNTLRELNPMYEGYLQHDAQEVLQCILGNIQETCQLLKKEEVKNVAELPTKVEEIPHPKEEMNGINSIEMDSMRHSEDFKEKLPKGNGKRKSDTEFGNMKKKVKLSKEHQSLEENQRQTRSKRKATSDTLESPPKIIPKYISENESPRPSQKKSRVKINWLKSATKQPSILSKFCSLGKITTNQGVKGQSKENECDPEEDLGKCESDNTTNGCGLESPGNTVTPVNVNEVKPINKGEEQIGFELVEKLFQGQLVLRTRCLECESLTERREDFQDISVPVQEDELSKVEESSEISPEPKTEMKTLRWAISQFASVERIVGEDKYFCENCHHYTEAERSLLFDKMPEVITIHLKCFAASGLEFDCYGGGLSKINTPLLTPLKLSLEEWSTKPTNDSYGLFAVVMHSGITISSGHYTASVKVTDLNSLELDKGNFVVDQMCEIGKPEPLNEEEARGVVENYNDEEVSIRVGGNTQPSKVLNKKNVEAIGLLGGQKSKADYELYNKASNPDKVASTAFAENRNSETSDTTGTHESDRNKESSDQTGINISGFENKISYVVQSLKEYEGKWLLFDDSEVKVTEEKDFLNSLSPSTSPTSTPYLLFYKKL
UniProt Q8TAF3, whole entry partner: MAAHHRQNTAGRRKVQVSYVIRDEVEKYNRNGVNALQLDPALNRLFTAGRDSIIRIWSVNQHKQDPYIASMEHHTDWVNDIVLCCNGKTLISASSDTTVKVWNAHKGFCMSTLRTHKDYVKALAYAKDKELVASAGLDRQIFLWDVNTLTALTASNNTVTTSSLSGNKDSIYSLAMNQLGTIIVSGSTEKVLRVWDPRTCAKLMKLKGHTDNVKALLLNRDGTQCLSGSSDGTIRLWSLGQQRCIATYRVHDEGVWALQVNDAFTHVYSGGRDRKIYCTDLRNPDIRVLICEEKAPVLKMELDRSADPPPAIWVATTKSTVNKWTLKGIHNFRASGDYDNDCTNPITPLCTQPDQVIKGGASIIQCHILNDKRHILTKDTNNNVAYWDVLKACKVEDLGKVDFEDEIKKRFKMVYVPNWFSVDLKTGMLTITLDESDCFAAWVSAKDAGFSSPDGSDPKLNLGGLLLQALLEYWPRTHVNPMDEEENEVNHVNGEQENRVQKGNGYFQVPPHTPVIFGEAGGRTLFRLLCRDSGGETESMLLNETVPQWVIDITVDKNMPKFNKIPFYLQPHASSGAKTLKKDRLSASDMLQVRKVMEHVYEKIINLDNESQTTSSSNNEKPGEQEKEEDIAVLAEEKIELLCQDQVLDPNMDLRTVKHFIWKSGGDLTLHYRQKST

How the values were obtained:
[1] = test system: Ub-PCNA levels in the nucleus of ES2 cells (USP1 activity); experiment: ES2 Ub-PCNA immunofluorescence (IF) assay; conditions: read-out: USP1 IC50 (Ub-PCNA), 3 hours
Method: USP1 is a deubiquitinating enzyme that removes ubiquitin from mono-ubiquitinated Proliferating Cell Nuclear Antigen (Ub-PCNA). The levels of Ub-PCNA in the nucleus of cells can be used to assess the activity of USP1. An immunofluorescence assay can be established to monitor Ub-PCNA levels in the ovarian cancer cell line, ES2.
An assay can be performed by first plating 5000 ES2 cells per well in black 96 well plates (Corning #3904) and then incubating overnight at 37° C. and 5% CO2. Compounds, resuspended in DMSO, can be added to the cells, to a final DMSO concentration of 0.3%. Plates can be incubated at 37° C. and 5% CO2 for 3 hours.
Cells can be then fixed and stained by first removing the media from each plate and fixing the cells with −20° C. methanol for 5 minutes at room temperature. Fixation plates can be washed with Tris buffered saline with tween (Boston Bioproducts #IBB-855) 5 times for 5 minutes each. […]
Imaging of the plates can be performed by first locating the nuclei using the DAPI stain. […] Ub-PCNA intensities can be measured for each individual nucleus counted. A histogram of all Ub-PCNA nuclear intensities measured in untreated wells can be generated and a 95% cutoff can be established. […] The number of positive cells can be expressed as a percentage by dividing by the total number of cells in the well. […]

USP1/UAF1 enzyme = USP1/UAF1 enzyme (Homo sapiens, UniProt O94782); experiment: USP1/UAF1 deubiquitination assay (ubiquitin-rhodamine 110 substrate); conditions: read-out: USP1 IC50 (Ub-Rho)
Method: Certain Compounds of the Disclosure were assessed for USP1/UAF1 activity in a Ubiquitin Rhodamine assay modified from those described previously.
Deubiquitinase activity was measured using ubiquitin-rhodamine 110 as a substrate. Cleavage of the amide bond between rhodamine and the c-terminal glycine of ubiquitin yields an increase in fluorescence signal. The assay was conducted in 20 μl total volume of assay buffer (50 mM Tris-HCl, pH 7.8, 0.5 mM EDTA, 0.01% Bovine Serum Albumin, 1 mM DTT, 0.01% Tween-20), and 0.05 nM USP1/UAF1 enzyme. Reaction was initiated by addition of 150 nM Ubiquitin-rhodamine (Boston Biochem) substrate.
Compounds of the Disclosure, dissolved in DMSO were tested in dose response format, beginning at […].
The example compounds listed below were added to enzyme/assay buffer mix and incubated 10 min. Substrate mix was added, and reaction mix was read in kinetic mode for 30 min at Ex480/Em540 and IC50 response curves were plotted.
Data for all assay formats was calculated as percent inhibition compared with control wells. Percent inhibition was calculated using the following equation: % inhibition=100×[1−(X−min)/(max−min)], where X is the raw data readout, min is the average of the no enzyme control wells (n=32), max is the average of the DMSO control well (n=32). IC50 values were calculated using the standard four parameter curve fitting algorithm in either Prism GraphPad (La Jolla, Calif.) software, or Collaborative Drug Discovery (Burlingame, Calif.) CDD Vault. See Chem. Biol. 20(1): 55-62 (Jan. 24, 2013); Bioorg. Med. Chem. Lett. 23(20): 5660-5666 (Oct. 15, 2013).

[2] = ADME solubility determination in PBS at pH 2.0 and pH 7.4; conditions: 24 hours; for Solubility at pH 2.0 (μM): PBS pH 2.0, 25° C.; for Solubility at pH 7.4 (μM): PBS pH 7.4, 25° C.
Method: Certain Compounds of the Disclosure were assessed for ADME solubility at pH 2.0 and pH 7.4.
Stock solutions were prepared by adding each compound to DMSO at a concentration of 10 mM. Samples were prepared by adding 50 μL of each stock solution to separate vials. The vials were loaded onto a 96-well rack and dried. 500 μL of Phosphate Buffered Saline (PBS) pH 7.4 or PBS pH 2.0 were added into each vial. The vials were then shaken at 25° C. and 1,100 rpm for 24 hours.
After 24 hours, the vials were centrifuged at 3220 G and 25° C. for 30 minutes. The supernatant fluid was analyzed by LC-MS/MS against a standard of known concentration. The solubility of each sample was then calculated using the equation below: […]
where DF is the dilution factor.

SMILES | IC50 [1] [µM] | IC50 (USP1/UAF1 enzyme) [µM] | Solubility at pH 2.0 (μM) [2] | Solubility at pH 7.4 (μM) [2]
CCn1cc(C(F)(F)F)nc1-c1ccc(CN2CC(C)Cn3nc(-c4c(Cl)cnn4C(C)C)cc32)cc1F (centres unmarked) | < 0.1 | < 0.1 | + (“+” indicates less than 10 μM) | + (“+” indicates less than 10 μM)
CCn1cc(C(F)(F)F)nc1-c1ccc(CN2CCCn3nc(-c4c(OC)ncnc4C4CC4)cc32)cc1 | < 0.1 | < 0.1 | ++ (“++” indicates 10 μM or greater) | + (“+” indicates less than 10 μM)
COc1cc(C)n(-c2ccc(CN3C(=O)CCn4nc(-c5c(Cl)cnn5C(C)C)cc43)cc2)n1 |  | 0.1 to 0.5 | + (“+” indicates less than 10 μM) | + (“+” indicates less than 10 μM)
